Literature values as cited in patent publication US7977317B2, “Compositions and methods for modulating blood-brain barrier transport” (Raptor Pharmaceutical Inc., priority 2001, dated 2011).

Molecular target: LDL-R (Homo sapiens, UniProt P01130)
Conditions: Tables 1-3; cited from earlier work

ApoE: Apolipoprotein E
Binding to LDL-R: Yes
